# High-throughput results: PubChem BioAssay, Broad Institute
# FGF22 binding: shifts melting point of recombinant human FGF22. 340,000 compounds, 1.5% hits. recombinant FGF22 thermal shift, SYPRO orange fluorescence; percent of sucrose octasulfate shift, DMSO zero. AID 651658. activity (Tm shift, normalised), % at 9.99 µM. Q9HCT0;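 active means mean Tm shift, scaled 0 neutral to 100 positive control, at about 1.3% or above, every replicate too, limit read from the data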
# PglD DTNB: blocks C. jejuni PglD acetyltransferase activity; purified PglD enzyme, DTNB colorimetric CoA detection; inhibition, % at 12.5 µM; 360,000 compounds, 0.098% hits; AID 602405; in the data active means inhibition above about 16%, passing the limit was not always enough
# ARNT TACC3 PPI: ARNT/TACC3 interaction disruption; inhibition, % at 9.99 µM; 390,000 compounds, 0.66% hits; AlphaScreen His-ARNT PAS-B/GST-TACC3 binding, luminescence; TACC3 fragment carries E629A point mutation; Q9Y6A5;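 active means mean inhibition of replicates at least 50% and at least half of replicates each reaching 50%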;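 further: 0% = complete ARNT plus TACC3 wells and 100% = ARNT alone without TACC3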
# ERp5 inh: inhibitors of human ERp5; ERp5 insulin aggregation, absorbance 650 nm, 90 min; inhibition, % at 9.99 µM; 350,000 compounds, 0.05% hits; AID 651711;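 active means mean replicate inhibition above about 25%, with every replicate also reaching it, limit read from the data, passing the limit was not always enough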
# UUG fidelity: alters start codon recognition fidelity in yeast; S. cerevisiae UUG-firefly luciferase reporter, luminescence/redox ratio; activity score, % at 18.7 µM; actives 0.13% (n = 350,000); AID 602363;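 active = replicate mean at a twofold rise or more, about +100% in these data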;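 also: firefly luciferase made from a UUG start codon reports start codon fidelity; reporter light over untreated wells divided by growth signal over untreated wells; some hits fall short of that in this replicate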
# PDI turbidity: blocks human protein disulfide isomerase activity | 350,000 compounds, 0.052% hits | inhibition, % at 10 µM | PDI insulin aggregation turbidity, A650, 90 min | P07237;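 active means mean inhibition across replicates of 30% or more, whatever share of single replicates reach that level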
# * = called active by the depositor; · = not tested or not shown. In the library only some 1.9% were active in any assay of this set; here they are far more common.
SMILES,FGF22 binding,PglD DTNB,ARNT TACC3 PPI,ERp5 inh,UUG fidelity,PDI turbidity
O=C(CCCn1c(=O)oc2ccccc21)N1CCc2ccccc2C1,·,-1.4,active,·,2.0,-31.2
CCCCC(=O)N1C/C=C\[C@H](c2ccc(OC)cc2)N(Cc2ccc(F)cc2)C(=O)[C@@H]1C,0.3,1.9,8.3*,5.7,-16.0,8.8
CC(=O)N/N=C/c1cc(C(C)(C)C)cc(/C=N/NC(C)=O)c1O,0.2,-0.8,62.5*,-4.5,-31.2,-3.7
C[C@H](CO)N1C[C@H](C)[C@@H](CN(C)S(=O)(=O)c2cccs2)OCc2ccccc2-c2c(n(C)c3ccccc23)C1=O,·,-1.4,13.9,-4.0,·,·
N#C/C(=C(/O)COc1ccccc1)c1nc2ccccc2s1,0.4,-3.9,-4.4,9.4,-22.3,10.1
N#C/C(=C(/O)COC(=O)c1ccc(C#N)cc1)c1nc2ccccc2s1,44.1*,-1.7,-5.3,-5.0,-14.0,9.2
C[C@@H]1CCCCO[C@@H](CN(C)C(=O)Cc2ccccc2)[C@@H](C)CN([C@@H](C)CO)C(=O)c2cc(NC(=O)C3CCCCC3)ccc2O1,0.0,-0.2,4.0,·,20.2,·
Cc1cc(-c2ccc(F)cc2)nc2cc(C(N)=O)nn12,·,·,40.8*,·,·,5.2
Cc1cc(C)n2nc(-c3ccc(F)cc3)cc2n1,0.2,-2.3,·,9.1,-27.7,2.5
COc1cccc(S(=O)(=O)Nc2ccc3c(c2)OC[C@@H](C)NC[C@H](C)[C@@H](OC)CN(C)C3=O)c1,-0.4,2.3,28.6,-2.8,7.4,·
COC(=O)[C@@H](NC(=O)/C=C/c1ccc(OC)cc1)C(C)C,43.1*,·,0.3,-15.4,·,-7.4
CCCCN1C(=O)C(CC(=O)NC2CC2)CC(C(=O)N(CC)CC)=C1C (centres undefined),43.0*,-1.8,·,9.4,-12.6,0.8
CCN(CC)C(=O)C1=C(C)N(Cc2ccccc2)C(=O)C(CC(=O)NCCCCc2ccccc2)C1 (centres undefined),43.1*,0.6,·,0.6,-13.1,3.9
CCN(CC)C(=O)C1=C(C)N(Cc2ccccc2)C(=O)C(CC(=O)NCc2cccs2)C1 (centres undefined),43.7*,-5.5,·,-3.2,-22.1,12.8
CCN(CC)C(=O)C1=C(C)N(Cc2ccc(OC)cc2)C(=O)C(CC(=O)NCCCN(C)C)C1 (centres undefined),43.6*,-2.6,·,2.0,-2.2,-9.7
CC1=C(C(=O)N(C(C)C)C(C)C)CC(CC(=O)NCCCCc2ccccc2)C(=O)N1Cc1ccccc1 (centres undefined),0.0,5.1,·,-0.8,27.9,3.4
CC(=O)N[C@H]1CC[C@@H](CC(=O)NCC2CCCCC2)O[C@H]1CO,-0.4,2.2,-52.4,-5.2,-6.8,·
COc1cc(/C=C/C(=O)O)ccc1S(=O)(=O)N1CCCc2ccccc21,43.5*,·,0.7,2.6,-15.5,-14.4
C[C@H](CO)N1C[C@H](C)[C@H](CN(C)C)Oc2ccc(NC(=O)Cn3cnnn3)cc2CC1=O,0.1,-0.1,0.9,-1.6,-6.0,·
O=C(Nc1ccccc1)Nc1ccc(F)cc1F,43.4*,·,·,-2.0,·,-18.8
O=C(Nc1ccccc1F)Nc1ccccc1F,43.7*,2.2,·,-1.5,-8.4,-3.0
O=C(Nc1ccc(Br)cc1)Nc1ccccc1F,-0.3,-1.2,-4.5,1.4,-18.7,15.6
C[C@@H]1CCCCO[C@@H](CN(C)C(=O)NC2CCCCC2)[C@H](C)CN([C@@H](C)CO)C(=O)c2cc(NS(=O)(=O)c3ccccc3)ccc2O1,-0.5,0.6,18.3,-3.2,2.5,·
O=C1CCCC2=C1C(c1ccncc1)Nc1ccccc1N2 (centres undefined),·,4.5,6.6,·,9.5,20.0
O=C1NCC2=C1C(c1ccccc1)Nc1ccccc1N2 (centres undefined),·,2.6,active,·,27.7,-2.9
O=c1cc(-c2ccc(O)c(-c3c(O)cc(O)c4c(=O)cc(-c5ccc(O)cc5)oc34)c2)oc2cc(O)cc(O)c12,44.8*,-1.3,3.4,0.3,-8.8,-5.5
CC(C)c1ccc(OCc2cccc(C(=O)N/N=C/c3cccnc3)c2)cc1,27.8*,-6.2,-3.4,2.2,-14.4,-4.1
O=C(C[C@@H]1CC[C@H]2[C@@H](COC[C@@H](O)CN2CC2CCOCC2)O1)N1CCOCC1,-0.1,2.4,-14.7,-3.9,-4.6,·
CO[C@H]1CN(C)C(=O)c2cc(NC(C)=O)ccc2OC[C@H](C)N(Cc2cccc(F)c2)C[C@H]1C,·,3.0,8.0,-1.4,7.2,·
Cc1ccccc1S(=O)(=O)N1[C@@H](c2ccc(F)cc2)C(C(=O)O)=CC[C@H]1c1ccc(Cl)cc1,2.2*,-0.9,0.2,2.3,16.7,7.8
CCC(CC)c1nnc(NC(=O)C2CCCO2)s1 (centres undefined),43.4*,·,1.7,3.9,·,3.2
C[C@H](CO)N1C[C@H](C)[C@H](CN(C)Cc2ccc(C(=O)O)cc2)Oc2ccc(NS(=O)(=O)c3ccccc3)cc2C1=O,-0.1,2.4,-6.9,7.2,28.3,·
COc1ccc(C2NC(Cc3ccccc3)(C(=O)O)C3C(=O)N(c4ccccc4OC)C(=O)C23)cc1 (centres undefined),42.9*,·,0.0,0.0,·,-0.2
CCN1C(=O)[C@H]2[C@@H](c3ccc(-c4ccc(OC)cc4)c(OC)c3)N[C@@](Cc3ccccc3)(C(=O)OC)[C@H]2C1=O,-0.3,2.1,2.0,5.3,-1.9,-0.4
O=C(NNC(=S)Nc1ccc(Cl)c(Cl)c1)c1ccccn1,0.4,·,74.8*,5.2,·,1.8
CCNC(=S)NNC(=O)c1ccccn1,·,2.1,67.5*,·,6.9,1.1
S=C(NCc1ccccn1)Nc1ccc(Cl)c(Cl)c1,·,·,·,·,·,-1.1
Oc1[nH]c2ccc(Br)cc2c1N=Nc1ccc(C(F)(F)F)cn1,44.1*,-1.5,·,-0.4,-17.4,-36.5
CCNC(=O)C[C@H]1CC[C@H]2[C@H](COc3ccc(NC(=O)c4cccc(OC)c4)cc3C(=O)N2C)O1,-0.1,-0.6,-6.5,0.8,11.6,·
O=C(NNc1nc2c(F)cc(F)cc2s1)c1ccccc1,43.1*,·,·,1.0,·,9.2
O=C(c1ccccc1)c1sc(N2CCOCC2)nc1-c1ccccc1,44.0*,6.0,·,-1.7,25.7,-41.6
C[C@H]1CN([C@@H](C)CO)C(=O)c2cc(NC(=O)Nc3ccccc3)ccc2O[C@H]1CN(C)S(=O)(=O)c1ccc(Cl)cc1,-0.3,2.4,-0.7,3.6,-3.7,·
Cc1ccc(S(=O)(=O)Nc2ccc3c(c2)CC(=O)N([C@@H](C)CO)C[C@@H](C)[C@@H](CN(C)S(=O)(=O)c2ccc(F)cc2)O3)cc1,0.1,4.9,2.8,·,21.2,·
C=CCNC(=O)COC(=O)c1cc(S(=O)(=O)N2CCCCC2)ccc1Cl,43.0*,0.7,-6.4,-65.7,13.6,3.2
C=CCNC(=O)COc1ccc(S(=O)(=O)N2CCCC2)cc1,0.1,·,6.9,0.7,·,3.5
